Source: patent US10538496B2, “Methods using HDAC11 inhibitors” (FORMA Therapeutics, Inc., priority 2016, dated 2020)

Experiments:
Ba/F3 MPL W515L cells = assay: Cell proliferation assay (CCK8); details: read-out: IC50, inhibition of proliferation; Ba/F3 MPLW515L, 48h
Ba/F3 JAK2 V617F cells = assay: Cell proliferation assay (CCK8); details: read-out: IC50, inhibition of proliferation; Ba/F3 JAK2V617F, 48h
NCI-H2170 cells = assay: Cell proliferation assay with combination treatment (MTT); details: H2170, combination with GDC-0449 (Vismodegib) or BMS-833923, 96 hours
A549 cells [1] = assay: as above; details: A549, combination with GDC-0449 (Vismodegib) or BMS-833923, 96 hours
H1650 cells = assay: QRT-PCR assay for stem cell transcription factors; details: 72 hours
A549 cells [2] = assay: QRT-PCR assay for stem cell transcription factors; details: 72 hours
HEL 92.1.7 cells [3] = assay: Cell proliferation assay (CCK8); details: 48h
H1650 SP cells = assay: Tube formation assay with stem-like side population NSCLC cells; details: on Matrigel, overnight
[4] = tested on: H1650 cells co-cultured with primary CAFs from human lung cancer; assay: Co-culture assay with cancer cells and cancer associated fibroblasts
SET-2 cells = assay: Cell proliferation assay (CCK8); details: Ruxolitinib-resistant SET-2
[5] = tested on: NCI-H1650 side population (SP) stem-like cells; assay: Sphere formation assay with stem-like side population NSCLC cells; details: H1650 (EGFR mutation), 0.5-5.0 μM, Day 10
[6] = tested on: A549 side population (SP) stem-like cells; assay: as above; details: A549 (KRAS mutation), 0.5-5.0 μM, Day 10
HEL 92.1.7 cells [7] = assay: Cell cycle assay (flow cytometry); details: 12 hours of treatment at 10 μM

SMILES | IC50 (Ba/F3 MPL W515L cells) [µM] | IC50 (Ba/F3 JAK2 V617F cells) [µM] | cell viability, combination with Smoothened inhibitors (NCI-H2170 cells) | cell viability, combination with Smoothened inhibitors (A549 cells [1]) | expression of Gli1 (mRNA) (H1650 cells) | expression of Sox2 (mRNA) (H1650 cells) | expression of Yap1 (mRNA) (H1650 cells) | expression of Gli1 (mRNA) (A549 cells [2]) | expression of Sox2 (mRNA) (A549 cells [2]) | expression of Yap1 (mRNA) (A549 cells [2]) | growth of the HEL 92.1.7 cell line (HEL 92.1.7 cells [3]) | tubule formation by H1650 SP cells (H1650 SP cells) | growth of H1650 cells co-cultured with primary CAFs ([4]; 1:1 co-culture) | effects on CAFs ([4]; 1:1 co-culture with H1650 cells) | growth of a SET-2 cell line generated to be Ruxolitinib-resistant (SET-2 cells) | growth of stem-like cancer cells (sphere formation) [5] | growth of stem-like cancer cells (sphere formation) [6] | cell cycle (HEL 92.1.7 cells [7])
CC1(C)c2cccc(C(=O)NO)c2CN1c1nc2ccc(C(F)(F)F)cc2[nH]1 | 1 to 10 | 1 to 10 | decreased cell viability | decreased cell viability | decreased expression | decreased expression | decreased expression | decreased expression | decreased expression | decreased expression |  |  |  |  |  |  |  | 
O=C(NO)c1cccc2c1CC1(CC2)CCN(Cc2ccc(Cl)cc2)C1=O (stereo not drawn) |  |  |  |  |  |  |  |  |  |  | did not |  |  |  |  |  |  | 
CC1(C)c2cccc(C(=O)NO)c2CN1c1cnc(C(F)(F)F)cn1 |  |  | decreased cell viability | decreased cell viability | decreased expression | decreased expression | decreased expression | decreased expression | decreased expression | decreased expression | inhibited the growth | inhibited tubule formation | inhibit the growth | minimal effects | inhibited the growth | prevented growth | prevented growth | induced G1 cell cycle arrest
O=C(NO)c1cccc2c1CC1(CC2)CCN(c2cccc(C(F)(F)F)c2)C1=O (stereo not drawn) |  |  |  |  |  |  |  |  |  |  |  | did not |  |  |  | did not | did not | 
